Measured logP (octanol/water) values of organic chemicals

logP is the log10 of the octanol-water partition coefficient; higher is more lipophilic. "via" names the databases from which the curators took the value.

- Cc1cc(S(=O)(=O)[O-])ccc1/N=N/c1c(O)ccc2ccccc12.[Na+] [C.I. Acid Orange 8, monosodium salt]: logP (octanol/water) -0.95 (via eChemPortal)
- CC(O)C[N+](C)(C)C.O=C[O-] (centres undefined) [1-Propanaminium, 2-hydroxy-N,N,N-trimethyl-, formate (1:1)]: logP (octanol/water) 0.01 (via eChemPortal)
- CC1=NN(c2ccc(/N=N/[c-]3c(C)nn(-c4ccc(S(=O)(=O)[O-])cc4)c3=O)cc2)C(=O)C1/N=N/c1ccc(S(N)(=O)=O)cc1[O-].CC1=NN(c2ccc(/N=N/[c-]3c(C)nn(-c4ccc(S(=O)(=O)[O-])cc4)c3=O)cc2)C(=O)C1/N=N/c1ccc(S(N)(=O)=O)cc1[O-].[Co+3].[Na+].[Na+].[Na+] (stereo partly drawn): logP (octanol/water) -2.467 (via eChemPortal)
- CCCCNc1cc(-c2nc(N)n[nH]2)ccn1 [4-(3-Amino-1H-1,2,4-triazol-5-yl)-N-butylpyridin-2-amine]: logP (octanol/water) 2.15 (via OCHEM)
- CC(S)C(=O)O.N (centres undefined) [2-Sulfanylpropanoic acid--ammonia (1/1)]: logP (octanol/water) 1.15 (via eChemPortal)
- C=COCCOCCOC=C [{2-[2-(Ethenyloxy)ethoxy]ethoxy}ethene]: logP (octanol/water) 1.8 (via eChemPortal)
- O=C(O)CCCCCCC(=O)O [Octanedioic acid]: logP (octanol/water) 0.59 (via eChemPortal)
- N=c1nc(O)n([C@@H]2O[C@H](CO)C[C@@H]2F)cc1F: logP (octanol/water) -0.92 (via OCHEM)
- CCCC=C(C=O)CC [2-Ethyl-2-hexenal]: logP (octanol/water) 2.61 (via eChemPortal)
- CCCCCCCCCC(=O)OCCCCC [Pentyl decanoate]: logP (octanol/water) 6.11 (via OCHEM)
- CC1(C)C(=O)N(CCO)C(=O)N1CCO: logP (octanol/water) 0.048 (via eChemPortal)
- CCCCCCCCOC(=O)c1ccccc1C(=O)OCCCC [Butyl octyl phthalate]: logP (octanol/water) 6.82 (via OCHEM)
- C[C@H](CCC(=O)O)[C@H]1CC[C@H]2[C@@H]3C(=O)C[C@@H]4C[C@H](O)CC[C@]4(C)[C@H]3CC[C@]12C [3alpha-Hydroxy-7-oxo-5beta-cholanoic acid]: logP (octanol/water) 3.48 (via eChemPortal)
- O=C(OCCOC(=O)c1ccc2c(c1)C(=O)OC2=O)c1ccc2c(c1)C(=O)OC2=O: logP (octanol/water) 3.33 (via eChemPortal)
- C[C@@H]1C[C@H]2[C@@H]3CCC4=CC(=O)C=C[C@]4(C)[C@@]3(F)[C@@H](O)C[C@]2(C)[C@@]1(O)C(=O)COC(=O)C(C)(C)C [Dexamethasone pivalate]: logP (octanol/water) 3.9 (via OCHEM)
- CCN(CC)CCc1nc(-c2ccccc2)no1 [Oxolamine]: logP (octanol/water) 2.393 (via eChemPortal)
- FC(F)(F)c1nc2c(Cl)c(Cl)c(Cl)c(Cl)c2[nH]1: logP (octanol/water) 3.97 (via OCHEM)
- N#Cc1ccc(C(c2ccc(C#N)cc2)n2cncn2)cc1 [4,4'-(1H-1,2,4-Triazol-1-ylmethylene)dibenzonitrile]: logP (octanol/water) 2.5 (via PubChem)
- Cn1c(N)cc2ccccc21 [1-Methyl-1H-indol-2-amine]: logP (octanol/water) 1.72 (via OCHEM)
- CCOc1ccncn1 [4-ethoxypyrimidine]: logP (octanol/water) 0.97 (via OCHEM)
- CC(C)CCCCCCCCCCCC/C=C/C(=O)O [Isooctadecenoic acid]: logP (octanol/water) 8.23 (via OCHEM)
- O=P([O-])([O-])C[N+]([O-])(CP(=O)([O-])[O-])CP(=O)([O-])O.[K+].[K+].[K+].[K+].[K+]: logP (octanol/water) -4.3 (via eChemPortal)
- COc1ccccc1N1CCN(CCNC(C)=O)CC1 [N-{2-[4-(2-Methoxyphenyl)piperazin-1-yl]ethyl}acetamide]: logP (octanol/water) 0.5 (via OCHEM)
- CCCCCCCCCCCCCCCCCCCl [Octadecyl chloride]: logP (octanol/water) 9.43 (via eChemPortal)
- Cc1ccc(/N=N/c2c(O)c(C(=O)[O-])cc3ccccc23)c(S(=O)(=O)[O-])c1.[Sr+2]: logP (octanol/water) -0.61 (via eChemPortal)
- C[C@]12CCC(=O)C=C1CC[C@@H]1[C@@H]2[C@@H](O)C[C@@]2(C)[C@H]1CC[C@]2(O)C(=O)COC(=O)CCC(=O)O [Cortisol 21-hemisuccinate]: logP (octanol/water) 2.11 (via OCHEM)
- NCCNCCN [Diethylenetriamine]: logP (octanol/water) -1.3 (via PubChem)
- C[Si](C)(C)O[Si](C)(C)O[Si](C)(C)O[Si](C)(C)O[Si](C)(C)O[Si](C)(C)O[Si](C)(C)C [Hexadecamethylheptasiloxane]: logP (octanol/water) 7.2 (via OCHEM)
- O=[N+]([O-])c1ccc(OP(=O)([O-])[O-])cc1.[Na+].[Na+] [4-Nitrophenyl phosphate disodium salt]: logP (octanol/water) -2.16 (via eChemPortal)
- CC(N)C12CC3CC(CC(C3)C1)C2 (centres undefined) [Rimantadine]: logP (octanol/water) 3.6 (via PubChem)
- COc1cc(S(=O)(=O)[O-])c(C)cc1NC(=O)C(/N=N/c1ccc(-c2nc3ccc(C)c(S(=O)(=O)[O-])c3s2)cc1)C(C)=O.[NH4+].[Na+] (stereo partly drawn) [C.I. Direct Yellow 157]: logP (octanol/water) -3.3 (via eChemPortal)
- COc1ccc2c(c1)C(=O)N(CCc1ccc(S(N)(=O)=O)cc1)C(=O)C2(C)C: logP (octanol/water) 2.5 (via eChemPortal)
- C=Cc1ccncc1 [4-Vinylpyridine]: logP (octanol/water) 1.36 (via eChemPortal)
- O=[N+]([O-])c1cc(S(=O)(=O)[O-])ccc1Cl.[Na+] [Sodium 3-nitro-4-chlorobenzenesulfonate]: logP (octanol/water) -2.49 (via eChemPortal)
- CCC[N+](C)(CCC)CCC.[I-] [N-Methyl-N,N-dipropylpropan-1-aminium iodide]: logP (octanol/water) -0.98 (via OCHEM)
- CN=C(O)NNC [N,2-Dimethylhydrazine-1-carboximidic acid]: logP (octanol/water) -1.57 (via OCHEM)
- CC1c2nc3ccccc3c(=O)n2CN1c1ccccc1 (centres undefined) [3-Methyl-2-phenyl-1,3-dihydroimidazo[5,1-b]quinazolin-9-one]: logP (octanol/water) 1.79 (via OCHEM)
- O=C([O-])CCCCCCCCC(=O)[O-].[Li+].[Li+] [Dilithium sebacate]: logP (octanol/water) 0.001 (via eChemPortal)
- Cc1ccc(N(CC2=NCCN2)c2cccc(O)c2)cc1 [Phentolamine]: logP (octanol/water) 3.3 (via PubChem)
- CCCCOC(=O)CC [Butyl propionate]: logP (octanol/water) 2.67 (via eChemPortal)
- O=Cc1ccc(Br)cc1 [Benzaldehyde, 4-bromo-]: logP (octanol/water) 2.75 (via OCHEM)
- Cc1ccccc1N=C(O)NN [N-(2-Methylphenyl)hydrazinecarboximidic acid]: logP (octanol/water) 0.36 (via OCHEM)

4 of these entries, quoted again:

{"smiles": "CN=C(O)NNC", "name": "N,2-Dimethylhydrazine-1-carboximidic acid", "logP (octanol/water)": "-1.57", "via": "OCHEM"}
{"smiles": "Cc1ccccc1N=C(O)NN", "name": "N-(2-Methylphenyl)hydrazinecarboximidic acid", "logP (octanol/water)": "0.36", "via": "OCHEM"}
{"smiles": "Cc1ccc(/N=N/c2c(O)c(C(=O)[O-])cc3ccccc23)c(S(=O)(=O)[O-])c1.[Sr+2]", "logP (octanol/water)": "-0.61", "via": "eChemPortal"}
{"smiles": "O=Cc1ccc(Br)cc1", "name": "Benzaldehyde, 4-bromo-", "logP (octanol/water)": "2.75", "via": "OCHEM"}

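OPERA's authors assembled the values from existing databases and did not measure them anew. One number stands for a compound and property, with no spread given. Conditions of the individual experiments are not part of the data. Where a salt, mixture or single isomer is drawn, the source does not say that exactly this form was tested. Some upstream entries may be estimates or bounds without being marked so.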

Source: data files of OPERA 2.9 (Mansouri et al.), github.com/kmansouri/OPERA.